IC50 data for one molecule are collected here from patent US20090143361A1, “Pyrido[3,2-E]Pyrazines, Process For Preparing The Same, And Their Use As Inhibitors Of Phosphodiesterase 10” (ELBION GMBH, priority 2007, published 2009).

Sequences of proteins named here, by UniProt entry; tags and fusion partners are left off. Residues count along the entry.
UniProt Q9Y233, 1-779 isoform Q9Y233-1: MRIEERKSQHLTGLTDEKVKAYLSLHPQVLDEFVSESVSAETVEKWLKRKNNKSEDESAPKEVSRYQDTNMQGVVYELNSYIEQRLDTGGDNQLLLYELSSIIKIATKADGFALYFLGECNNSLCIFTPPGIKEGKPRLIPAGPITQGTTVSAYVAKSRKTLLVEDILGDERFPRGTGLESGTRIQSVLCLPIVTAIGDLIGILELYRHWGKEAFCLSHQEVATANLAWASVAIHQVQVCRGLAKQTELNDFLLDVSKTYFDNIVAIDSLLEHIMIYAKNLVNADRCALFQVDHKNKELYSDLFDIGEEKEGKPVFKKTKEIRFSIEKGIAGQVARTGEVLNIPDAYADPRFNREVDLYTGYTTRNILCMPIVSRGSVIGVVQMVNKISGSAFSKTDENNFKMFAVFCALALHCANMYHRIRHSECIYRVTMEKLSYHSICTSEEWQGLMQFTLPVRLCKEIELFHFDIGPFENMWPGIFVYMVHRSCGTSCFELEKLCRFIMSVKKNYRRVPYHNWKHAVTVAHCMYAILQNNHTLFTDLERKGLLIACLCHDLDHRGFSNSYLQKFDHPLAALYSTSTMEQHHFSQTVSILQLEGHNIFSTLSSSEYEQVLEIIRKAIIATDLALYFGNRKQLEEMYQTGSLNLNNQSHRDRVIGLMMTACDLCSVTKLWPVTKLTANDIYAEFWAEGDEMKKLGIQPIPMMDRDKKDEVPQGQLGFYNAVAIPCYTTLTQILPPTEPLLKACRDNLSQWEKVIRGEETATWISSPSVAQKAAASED

The assay deals with T1, human recombinant PDE10A (Homo sapiens, UniProt Q9Y233).
T1 construct: made in house; host or cells: SF21 insect cells (baculovirus)
The experiment in a line: Inhibition of PDE10, human recombinant PDE10A ([3H]-cAMP SPA). The format is biochemical. As to the method:
The gene was than inserted into a baculovirus vector, ligated with the baculovirus DNA. The enzyme-protein was expressed in SF21-cells. The enzyme was isolated from these cells by harvesting the cells by a centrifugation at 200 g to collect the cells. The cells were resuspended in 50 mM Tris-HCl/5 mM MgCl2 buffer (pH=7.4) and lysed by a sonication of the cells. The cytosolic PDE10A was obtained by a centrifugation at 48000 g for 1 h in the supernatant and stored at −70° C. PDE10 activity was determined in a one step procedure in microtiterplates. […] Nonspecific activity was tested without the enzyme. The reaction was initiated by addition of the substrate solution and was carried out at 37° C. for 30 minutes. Enzymatic activity was stopped by addition of 25 μl YSi-SPA-beads (Amersham-Pharmacia). One hour later the mixture was measured in a liquid scintillation counter for microtiterplates (Microbeta Trilux). To pipette the incubation mixture a robot Biomek (Fa. Beckman) is used. […] For determination of IC50 values the Hill-plot, 2-parameter-model, was used.

The structures appear in SMILES notation.

For the molecule `COc1ccc(Cc2nccc3cc(OC)c(OC)cc23)cc1OC` [Papaverine, papaverine], the IC50 – broadly, the concentration needed to halve the response being measured – worked out at 89 nM.
